Publication PMC8976073 (Nature Communications, 2022)

How the values were obtained:
[1] = biological target: T1, FPR2 (Homo sapiens, UniProt P25090); experiment: Inositol-phosphate (IP) accumulation assay, FPR2 (wild type and mutants) with chimeric GαΔ6qi4myr in HEK293F cells; assay type: cell-based; conditions: FPR2 WT
T1 sequence (P25090 1-351): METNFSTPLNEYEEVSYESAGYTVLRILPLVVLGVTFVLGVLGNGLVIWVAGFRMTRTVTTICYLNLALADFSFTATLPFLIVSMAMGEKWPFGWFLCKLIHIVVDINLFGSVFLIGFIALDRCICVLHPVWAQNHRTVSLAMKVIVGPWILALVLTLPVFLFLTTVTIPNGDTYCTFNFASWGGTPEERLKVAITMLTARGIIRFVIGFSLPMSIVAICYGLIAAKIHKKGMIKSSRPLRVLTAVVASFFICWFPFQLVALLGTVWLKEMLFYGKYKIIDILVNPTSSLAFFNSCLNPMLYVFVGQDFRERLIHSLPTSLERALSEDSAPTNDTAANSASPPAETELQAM
Description: Flag-tagged wild-type FPR1 and FPR2 and mutants were cloned into the pTT5 vector and expressed in HEK293F cells. Cells were cotransfected with the plasmids of receptor and a chimeric Gα protein GαΔ6qi4myr, which redirects the Gαi signaling pathway to the Gαq phospholipase-C pathway, at a ratio of 1:2 (w/w), and were harvested 48 h post transfection. The cell-surface expression was measured as described above.
The IP-One Gq assay kit (Cisbio Bioassays, 62IPAPEB) was used to measure the peptide agonist-induced IP production. […] Then, the cells were supplemented with 3 μl cryptate-labeled anti-IP1 monoclonal antibody (1:20 diluted in lysis and detection buffer) and 3 μl d2-labeled IP1, and incubated at room temperature for another 1 h. […] The accumulation of IP1, EC50, and pEC50 were calculated using nonlinear regression (curve fit) according to a standard dose–response curve in GraphPad Prism 8.0 (GraphPad software).

[2] = biological target: T1, FPR2; experiment: Competition binding: inhibition of WK(FITC)YMVm binding to FPR2 (wild type and mutants), HEK293F cells; parameters: expressed in transfected cells; host or cells: HEK293F cells, pTT5 vector, co-transfected with GαΔ6qi4myr (1:2 w/w); conditions: FPR2 WT; competition with WK(FITC)YMVm
Description: The genes of wild-type FPR1 and FPR2 and mutants with a Flag tag at the N termini were cloned into pTT5 vector (Invitrogen) and expressed in HEK293F cells (Invitrogen). Cells were harvested 48 h post transfection with 1 μg ml^−1 plasmid. Cell-surface expression of the receptors was measured by mixing 10 μl cells with 15 μl of TBS buffer supplemented with 4% BSA, 20% (v/v) viability-staining solution 7-AAD (Invitrogen, Cat#00-6993-50), and 0.1% (v/v) anti-FLAG M2-FITC antibody (Sigma, Cat#F4049) at 4 °C for 20 min. After incubation, 175 μl of TBS buffer was added and the fluorescent signal was measured using a flow-cytometry reader (Guava easyCyte HT, Millipore). Then, the cells were washed and resuspended to a final concentration of 1 × 10^6 cells per ml in Hanks’ Balanced Salt Solution (HBSS) buffer supplemented with 0.5% bovine serum albumin (BSA) and 20 mM HEPES, pH 7.4.
The mean fluorescent intensity of each well was then read by the FCM reader. Total binding and nonspecific binding were measured in the absence and presence of the unlabeled ligand (200 μM WKYMVm), respectively. […] Mean fluorescent-intensity values were measured by flow cytometry. Data were analyzed using Prism 8.0 (GraphPad software).

Substance	potency of peptide variant (in words) [1]	binding to FPR2 (in words) [2]
Ab42-D1A: Aβ42 variant D1A	substantially reduced potency	
Aβ1-12: N-terminal fragment of Aβ (DAEFRHDSGYEV; Amyloid-beta protein 42; UniProt P05067 672-683, looked up, fragment)		incapable of binding
